According to patent US9873693B2 (Sunesis Pharmaceuticals, Inc., priority 2006, dated 2018):

Columns and labels:
phospho-akt (Thr308) = phospho-akt (Thr308) MSD ELISA in PC-3 cells; type: cell-based
Phospho-T308 Akt = Phospho-T308 Akt detection using immunoblot (western blot) in PC-3 cells

SMILES: CN(C)C(=O)CCC(NC(=O)c1cccn(Cc2ccc(F)c(F)c2)c1=O)c1nc(-c2c[nH]c3ncccc23)cs1 (stereo not shown)
- Percent Inhibition of phospho-Akt (308) By MSD ELISA (phospho-akt (Thr308); at 1 μM): d (inhibition of less than 25%)
- Percent Inhibition of phospho-Akt (308) By MSD ELISA (phospho-akt (Thr308); at 10 μM): dd (inhibition of from 25% to 75%)
- Reduction of Cellular Levels of Akt p308 By Western (Phospho-T308 Akt; 2 hour incubation, concentration not given in Table 2): bb (inhibition of from 25% to 75%)
- Percent Inhibition of phospho-Akt (308) By Western (Phospho-T308 Akt; at 5 μM): 5 μM = dd (inhibition of from 25% to 75%)
